Assay results reported in PubChem BioAssay AID720535 (National Center for Advancing Translational Sciences (NCATS), 2013).
Only a part is listed here, and it is no random draw. Inconclusive results are not listed. Activity calls are given as the source filed them. Calls follow the shape of the dose curve; as a rule, active = well fitted inhibition curve with a large enough effect; inconclusive = small, poorly fitted or top-dose-only effect; inactive = flat fitted curve, though single readings scatter.

assay: qHTS for Inhibitors of TGF-b: Cytotox Counterscreen for Cherry Picks; conditions: HepG2 CAGA-GFP viability, ATP luminescence, 18 h, cells stimulated with TGF-beta, 500 pg/mL; at 46.1 µM (top of the series); also: nearly all actives have a fitted effect of over 70% in size
From the text: TGF-b is a main component in the TGF-b signaling pathway which plays diverse roles in cellular and development pathways. TGF-b is mediated by transcription factors called "Smads". Although the Smad-dependent pathway is the primary canonical TGF-b signaling mode, TGF-b1 can also activate alternative signaling pathways, including those involving MAPK (ERK, JNK and p38). This interaction may mediate or enhance Smad-dependent responses, or can exert Smad-independent effects. The complexity of this signaling cascade allows the TGF-b superfamily to perform unique, overlapping or redundant functions. We believe that targeting the TGF-beta pathway at the Smad-transcription factor level may eliminate the consequences of disrupting the entire pathway and offer specificity without affecting other signaling pathways. Smad3 is the primary transducer of TGF-b's signals and Smad3 regulates many functions attributed to TGF-b signaling. We hypothesize that Smad3 inhibitors will selectively eliminate Smad3-specific TGF-beta signals without undesired off-target effects. We aim to identify Smad3-small molecule antagonists using a quantitative high throughput screening (qHTS) approach. A high-throughput assay was developed to screen the NIH Molecular Libraries Small Molecule Repository (MLSMR). This is a cell based assay, where TGF-b is tagged with GFP. This is a counterscreen that evaluates the cytotoxicity of the compounds that were identified as hits in the primary cell-based screen (AID 588855). MH087449NIH Chemical Genomics Center [NCGC] NIH Molecular Libraries Probe Centers Network [MLPCN] MLPCN Grant: MH087449 Assay Submitter (PI): Sushil Rane, National Institute of Diabetes and Kidney Diseases
Suspensions of trypsinized HEPG2 CAGA-GFP cells were dispensed into white, tissue culture-treated, solid 1536-well plates at 5uL/well (1000 cells/well final concentration) in DMEM medium supplemented with 1% FBS. Plates were incubated at 37 degrees C for 2 hours, after which 23 nL of compounds or DMSO were delivered to each well using a pin tool. […] Two uL of CellTiter Glo (Promega), a luminescence-based viability reagent, was dispensed, followed by a 10 minute room temperature incubation. The plates were then measured on a PerkinElmer ViewLux plate reader for luminescence (clear filter) using a 5 second exposure. The %Activity was determined from the corrected luminescence values. […] Concentration-response curves were fitted to the signals arising from the resulting luminescence. The concentration-effect curves were then classified based on curve quality (r2), response magnitude and degree of measured activity, and compounds were subsequently categorized based on their curve class.

Row | Compound | activity, negative = cytotoxicity
1 | CCCCn1nnnc1C(c1cccc2ccccc12)N1CCC(n2c(=O)[nH]c3ccccc32)CC1 (centres undefined) | inactive: -17.7%
2 | CCCCn1nnnc1C(c1ccccc1OC(F)(F)F)N1CCC(n2c(=O)[nH]c3ccccc32)CC1 (centres undefined) | inactive: -27%
3 | O=c1[nH]c2ccccc2n1C1CCN(C(c2ccccc2)c2nnnn2C2CCCCC2)CC1 (centres undefined) | inactive: -24.3%
4 | O=c1[nH]c2ccccc2n1C1CCN(C(c2cccs2)c2nnnn2C2CCCCC2)CC1 (centres undefined) | inactive: -13%
